According to paper PMC5750214 (Nature Communications, 2018):

Columns and labels:
[1] = target: human angiotensin II type 1 (AT1) receptor (human) (UniProt P30556); test: radioligand binding; saturation: [125I]-Ang II (0-100 nM) on membrane extracts of HEK293A cells transfected with the human AT1 receptor, without Hcy; 4 °C, 24 h; binding to non-transfected membranes subtracted
[2] = target: human angiotensin II type 1 (AT1) receptor (human) (UniProt P30556); test: radioligand binding; saturation: [125I]-Ang II (0-100 nM) on membrane extracts of HEK293A cells transfected with the human AT1 receptor, in the presence of Hcy (100 μM); 4 °C, 24 h

- Kd [1]: 10.8 nM
- Kd [2]: 14.5 nM
Substance: [125I]-Angiotensin II (peptide)
